Chains of the proteins cited; added tags and fusions are not shown.
UniProt P04049, whole entry Y340E/Y341E: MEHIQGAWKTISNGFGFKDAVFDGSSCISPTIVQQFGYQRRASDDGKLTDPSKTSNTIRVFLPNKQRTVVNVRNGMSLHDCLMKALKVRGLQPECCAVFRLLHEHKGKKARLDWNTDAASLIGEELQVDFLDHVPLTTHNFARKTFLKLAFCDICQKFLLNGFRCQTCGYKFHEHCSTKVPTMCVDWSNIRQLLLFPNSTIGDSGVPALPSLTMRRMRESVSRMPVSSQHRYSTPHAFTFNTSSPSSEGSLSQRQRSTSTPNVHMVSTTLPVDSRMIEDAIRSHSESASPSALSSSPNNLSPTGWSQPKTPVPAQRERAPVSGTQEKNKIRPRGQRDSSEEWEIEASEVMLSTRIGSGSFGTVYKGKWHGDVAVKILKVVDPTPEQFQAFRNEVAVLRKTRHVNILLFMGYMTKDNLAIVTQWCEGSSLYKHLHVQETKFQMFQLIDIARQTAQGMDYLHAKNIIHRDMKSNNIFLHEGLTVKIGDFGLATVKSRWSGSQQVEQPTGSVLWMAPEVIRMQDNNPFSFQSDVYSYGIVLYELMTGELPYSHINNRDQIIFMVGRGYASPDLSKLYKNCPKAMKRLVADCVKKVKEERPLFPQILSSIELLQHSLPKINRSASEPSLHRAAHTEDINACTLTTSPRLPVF

One assay deals with C-Raf FL (full-length C-Raf protein, Y340E and Y341E activating mutations) (Homo sapiens (Human), UniProt P04049, Y340E/Y341E). The class given is biochemical. The note with it: AlphaScreen, 60 min pre-incubation, 1 hour reaction; read-out: c-Raf FL IC-50. On the technique in general: In Alpha technology, singlet oxygen from a donor bead excites a nearby acceptor bead.
Regarding `Cc1ncc(NC(=O)c2ccnc(C3(C#N)CC3)c2)cc1-c1cc(N2CCOCC2)c(=O)n(C)n1` [Example 683, 2-(1-cyanocyclopropyl)-N-(6-methyl-5-(1-methyl-5-morpholino-6-oxo-1,6-dihydropyridazin-3-yl)pyridin-3-yl)isonicotinamide], the IC50 was 3 nM.

As to `CCNc1nc(-c2cc(NC(=O)c3cnnc(C(C)(C)C#N)c3)cnc2C)cc(N2CCOCC2)n1` [Example 730, 6-(2-cyanopropan-2-yl)-N-(5-(2-(ethylamino)-6-morpholinopyrimidin-4-yl)-6-methylpyridin-3-yl)pyridazine-4-carboxamide], the IC50 is 7.5 nM.

Consider `Cc1ccc(NC(=O)c2cc(C(F)(F)F)ccn2)cc1-c1cc(N2CCOCC2)c(OC2CCOCC2)nn1` [Example 580, N-(4-methyl-3-(5-morpholino-6-((tetrahydro-2H-pyran-4-yl)oxy)pyridazin-3-yl)phenyl)-4-(trifluoromethyl)picolinamide], for which the IC50 was determined as 0.1 nM.

Regarding `CCOc1nnc(-c2cc(NC(=O)c3ccnc(C(C)(F)F)c3)cnc2C)cc1N1CCOCC1` [Example 620, 2-(1,1-difluoroethyl)-N-(5-(6-ethoxy-5-morpholinopyridazin-3-yl)-6-methylpyridin-3-yl)isonicotinamide], the IC50 stood at 0.5 nM.

For `Cn1c(N2C3CCC2COC3)cc(-c2cc(NC(=O)c3ccnc(C(C)(F)F)c3)cnc2Cl)cc1=O` [Example 528, N-(6′-(3-oxa-8-azabicyclo[3.2.1]octan-8-yl)-2-chloro-1′-methyl-2′-oxo-1′,2′-dihydro-[3,4′-bipyridin]-5-yl)-2-(1,1-difluoroethyl)isonicotinamide], the IC50 was determined as 4 nM.

Regarding `Cc1ccc(NC(=O)c2ccnc(C(F)(F)F)c2)cc1-c1cc(N2CCOCC2)nc(OC2CNC2)n1` [Example 780, N-(3-(2-(azetidin-3-yloxy)-6-morpholinopyrimidin-4-yl)-4-methylphenyl)-2-(trifluoromethyl)isonicotinamide], the IC50 stood at 0.8 nM.

The assay is the same for the next values; noted with them: AlphaScreen, 60 min pre-incubation, reaction 1 hour at room temperature; read-out: c-Raf FL IC-50.
Take `Cc1ccc(NC(=O)c2ccnc(C3(C#N)CC3)c2)cc1-c1cc(NCCO)nc(N2CCOCC2)c1F` [Example 1011, 2-(1-cyanocyclopropyl)-N-(3-(3-fluoro-6-((2-hydroxyethyl)amino)-2-morpholinopyridin-4-yl)-4-methylphenyl)isonicotinamide]: the IC50 turned out to be 3.81 nM.

With `Cc1ccc(NC(=O)c2ccnc(C(C)(C)C#N)c2)cc1-c1nc2c(c(N3CCOCC3)n1)S(=O)(=O)CC2` [Example 855, 2-(2-cyanopropan-2-yl)-N-(4-methyl-3-(4-morpholino-5,5-dioxido-6,7-dihydrothieno[3,2-d]pyrimidin-2-yl)phenyl)isonicotinamide], the IC50 was 0.4 nM.

Turning to `Cc1ccc(NC(=O)c2ccnc(C(F)F)c2)cc1-c1cc(OCCO)nc(N2CCOCC2)c1` [Example 1160, 2-(difluoromethyl)-N-(3-(2-(2-hydroxyethoxy)-6-morpholinopyridin-4-yl)-4-methylphenyl)isonicotinamide], the IC50 was 0.16 nM.

`Cc1ncc(NC(=O)c2ccnc(C(C)(F)F)c2)cc1-c1cc(N2CCOCC2)c(OCC(F)F)nn1` [Example 915, N-(5-(6-(2,2-difluoroethoxy)-5-morpholinopyridazin-3-yl)-6-methylpyridin-3-yl)-2-(1,1-difluoroethyl)isonicotinamide]: the IC50 turned out to be 0.45 nM.

On to `Cc1ccc(NC(=O)c2ccnc(C(F)(F)F)c2)cc1-c1cc(NC[C@@H](C)O)nc(N2CCOCC2)c1` [Example 991, (R)—N-(3-(2-((2-hydroxypropyl)amino)-6-morpholinopyridin-4-yl)-4-methylphenyl)-2-(trifluoromethyl)isonicotinamide], for which the IC50 was 0.76 nM.

Take `Cc1ccc(NC(=O)c2ccnc(C(F)(F)F)c2)cc1-c1cc(NCC2CCOC2)nc(N2CCOCC2)c1` (stereo not shown) [Example 1055, N-(4-methyl-3-(2-morpholino-6-(((tetrahydrofuran-3-yl)methyl)amino)pyridin-4-yl)phenyl)-2-(trifluoromethyl)isonicotinamide]: the IC50 came out at 0.38 nM.

As to `Cc1ncc(NC(=O)c2cnnc(C3(C#N)CC3)c2)cc1-c1cnc(OCC(F)F)c(N2CCOCC2)c1` [Example 936, 6-(1-cyanocyclopropyl)-N-(6′-(2,2-difluoroethoxy)-2-methyl-5′-morpholino-[3,3′-bipyridin]-5-yl)pyridazine-4-carboxamide], the IC50 is 1.69 nM.

On to `Cc1ncc(NC(=O)c2cc(C(C)(C)C#N)ccn2)cc1-c1cnc(OCCO)c(N2CCOCC2)c1` [Example 973, 4-(2-cyanopropan-2-yl)-N-(6′-(2-hydroxyethoxy)-2-methyl-5′-morpholino-[3,3′-bipyridin]-5-yl)picolinamide], for which the IC50 turned out to be 5.6 nM.

Turning to `Cc1ccc(NC(=O)c2cc(C(C)(C)C#N)ccn2)cc1-c1cc(N2CCOCC2)n(C)c(=O)c1` [Example 900, 4-(2-cyanopropan-2-yl)-N-(4-methyl-3-(1-methyl-6-morpholino-2-oxo-1,2-dihydropyridin-4-yl)phenyl)picolinamide], the IC50 came to 0.78 nM.

Turning to `Cc1ncc(NC(=O)c2ccnc(C(F)F)c2)cc1-c1cnc(OC2CC3(COC3)C2)c(N2CCOCC2)c1` [Example 965, N-(6′-(2-oxaspiro[3.3]heptan-6-yloxy)-2-methyl-5′-morpholino-[3,3′-bipyridin]-5-yl)-2-(difluoromethyl)isonicotinamide], the IC50 was determined as 0.71 nM.

In the case of `Cc1ncc(NC(=O)c2cnnc(C3CC3)c2)cc1-c1cc(N2CCOCC2)nc(N2CC(C)(O)C2)c1` [Example 1101, 6-cyclopropyl-N-(2′-(3-hydroxy-3-methylazetidin-1-yl)-2-methyl-6′-morpholino-[3,4′-bipyridin]-5-yl)pyridazine-4-carboxamide], the IC50 was 2.64 nM.

On to `Cc1ncc(NC(=O)c2cc(C(C)(C)F)ccn2)cc1-c1cnc(OC(C)C)c(N2CCOCC2)c1` [Example 957, 4-(2-fluoropropan-2-yl)-N-(6′-isopropoxy-2-methyl-5′-morpholino-[3,3′-bipyridin]-5-yl)picolinamide], for which the IC50 amounted to 2.41 nM.

The assay is the same for the next values; noted with them: Table 2; AlphaScreen, 1 hour reaction; read-out: c-Raf FL IC-50.
For `Cc1ccc(NC(=O)c2ccnc(C(F)(F)F)c2)cc1-c1cc(N2CCOCC2)c(=O)n(C)c1` [Example 179, N-(4-methyl-3-(1-methyl-5-morpholino-6-oxo-1,6-dihydropyridin-3-yl)phenyl)-2-(trifluoromethyl)isonicotinamide], the IC50 came to 0.2 nM.

Turning to `Cc1ccc(NC(=O)c2cccc(C(F)F)c2)cc1-c1cc(N2CCOCC2)c(=O)n(CCC#N)c1` [Example 336, N-(3-(1-(2-cyanoethyl)-5-morpholino-6-oxo-1,6-dihydropyridin-3-yl)-4-methylphenyl)-3-(difluoromethyl)benzamide], the IC50 stood at 1.3 nM.

Take `Cc1ncc(NC(=O)c2cccc(C(F)(F)F)c2)cc1-c1cnc(C(C)(C)C#N)c(N2CCOCC2)c1` [Example 326, N-(6′-(2-cyanopropan-2-yl)-2-methyl-5′-morpholino-[3,3′-bipyridin]-5-yl)-3-(trifluoromethyl)benzamide]: the IC50 came out at 1.1 nM.

Turning to `Cc1ccc(NC(=O)c2ccnc(C(C)C)c2)cc1-c1cc(N2CCOCC2)c(=O)n(C)c1` [Example 348, 2-isopropyl-N-(4-methyl-3-(1-methyl-5-morpholino-6-oxo-1,6-dihydropyridin-3-yl)phenyl)isonicotinamide], the IC50 turned out to be 0.8 nM.
